{
  "sequences": {"note": "Chains of the proteins cited; added tags and fusions are not shown. Residues count along the entry.", "ATIII-fondaparinux complex (human antithrombin III with fondaparinux bound) (human), P01008, UniProt P01008, 33-464 limits assumed": "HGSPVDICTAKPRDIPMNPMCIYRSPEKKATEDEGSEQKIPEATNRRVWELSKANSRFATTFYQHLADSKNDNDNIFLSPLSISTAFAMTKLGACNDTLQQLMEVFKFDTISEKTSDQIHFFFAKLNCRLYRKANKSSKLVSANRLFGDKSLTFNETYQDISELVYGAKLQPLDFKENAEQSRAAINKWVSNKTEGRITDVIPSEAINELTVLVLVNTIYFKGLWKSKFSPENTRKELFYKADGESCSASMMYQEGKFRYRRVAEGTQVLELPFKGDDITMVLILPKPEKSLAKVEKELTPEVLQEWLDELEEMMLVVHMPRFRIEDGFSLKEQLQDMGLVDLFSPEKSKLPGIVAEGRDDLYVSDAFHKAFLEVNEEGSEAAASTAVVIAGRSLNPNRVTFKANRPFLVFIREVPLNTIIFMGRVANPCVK"},
  "source": "patent US20180185459A1",
  "binders": {"B1": {"name": "r-Antidote (processed two-chain polypeptide, human factor Xa triple mutant after removal of the -RKRRKR- linker), P00742 80-179; P00742 235-488 (protein)", "chain 1": "ANSFLFWNKYKDGDQCETSPCQNQGKCKDGLGEYTCTCLEGFEGKNCELFTRKLCSLDNGDCDQFCHEEQNSVVCSCARGYTLADNGKACIPTGPYPCGKQTLER", "chain 2": "IVGGQECKDGECPWQALLINEENEGFCGGTILSEFYILTAAHCLYQAKRFKVRVGDRNTEQEEGGEAVHEVEVVIKHNRFTKETYDFDIAVLRLKTPITFRMNVAPACLPERDWAESTLMTQKTGIVSGFGRTHEKGRQSTRLKMLEVPYVDRNSCKLSSSFIITQNMFCAGYDTKQEDACQGDAGGPHVTRFKDTYFVTGIVSWGEGCARKGKYGIYTKVTAFLKWIDRSMKTRGLPKAKSHAPEVITSSPLK", "modifications": "here or on the partner: non-covalently bound fondaparinux (synthetic pentasaccharide)"}},
  "biological_target": "ATIII-fondaparinux complex (human antithrombin III with fondaparinux bound) (human), P01008",
  "experiment": "kinetic analysis (Dynafit) of fXa inhibition curves with a series of ATIII-fondaparinux and PRT064445 concentrations, purified human proteins",
  "settings": "remark: other sources report otherwise",
  "data": [
    {"binder": "B1", "values": [
      {"measurement": "Kd", "value": 53, "unit": "nM"}
    ]}
  ]
}
